Data on 26 molecules can be found in paper PMC7723054.

Common to all, as to experiment: FOREST: bead pull-down of RNA structure library v1, barcode microarray; U1A/LIN28A: 20 mM HEPES pH 7.5, 80 mM KCl, 20 mM NaCl, 10% glycerol, 2 mM DTT, 0.1 ug/uL BSA, 4 C; BG4/CIRBP/DHX36: 10 mM Tris-HCl pH 7.5, 100 mM KCl (or LiCl),; high values mean tight binding
For assay [1], the target named is T1, LIN28A (human?, UniProt Q9H9Z2 1-209).
T1 sequence: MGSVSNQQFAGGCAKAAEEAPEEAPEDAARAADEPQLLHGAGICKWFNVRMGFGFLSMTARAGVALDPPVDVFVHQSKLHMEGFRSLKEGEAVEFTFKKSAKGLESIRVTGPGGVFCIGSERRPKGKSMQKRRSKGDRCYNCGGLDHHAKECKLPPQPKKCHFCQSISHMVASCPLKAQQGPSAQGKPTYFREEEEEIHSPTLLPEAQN

In assay [2] the target is T2, CIRBP (Homo sapiens, UniProt Q14011 1-172).
T2 sequence: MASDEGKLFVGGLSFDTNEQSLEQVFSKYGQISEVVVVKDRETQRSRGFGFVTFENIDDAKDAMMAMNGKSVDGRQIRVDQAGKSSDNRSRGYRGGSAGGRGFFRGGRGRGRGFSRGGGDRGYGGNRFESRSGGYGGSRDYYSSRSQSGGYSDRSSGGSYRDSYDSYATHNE

Assay [3] addresses T3, DHX36 (Homo sapiens, UniProt Q9H2U1 1-1008).
T3 sequence: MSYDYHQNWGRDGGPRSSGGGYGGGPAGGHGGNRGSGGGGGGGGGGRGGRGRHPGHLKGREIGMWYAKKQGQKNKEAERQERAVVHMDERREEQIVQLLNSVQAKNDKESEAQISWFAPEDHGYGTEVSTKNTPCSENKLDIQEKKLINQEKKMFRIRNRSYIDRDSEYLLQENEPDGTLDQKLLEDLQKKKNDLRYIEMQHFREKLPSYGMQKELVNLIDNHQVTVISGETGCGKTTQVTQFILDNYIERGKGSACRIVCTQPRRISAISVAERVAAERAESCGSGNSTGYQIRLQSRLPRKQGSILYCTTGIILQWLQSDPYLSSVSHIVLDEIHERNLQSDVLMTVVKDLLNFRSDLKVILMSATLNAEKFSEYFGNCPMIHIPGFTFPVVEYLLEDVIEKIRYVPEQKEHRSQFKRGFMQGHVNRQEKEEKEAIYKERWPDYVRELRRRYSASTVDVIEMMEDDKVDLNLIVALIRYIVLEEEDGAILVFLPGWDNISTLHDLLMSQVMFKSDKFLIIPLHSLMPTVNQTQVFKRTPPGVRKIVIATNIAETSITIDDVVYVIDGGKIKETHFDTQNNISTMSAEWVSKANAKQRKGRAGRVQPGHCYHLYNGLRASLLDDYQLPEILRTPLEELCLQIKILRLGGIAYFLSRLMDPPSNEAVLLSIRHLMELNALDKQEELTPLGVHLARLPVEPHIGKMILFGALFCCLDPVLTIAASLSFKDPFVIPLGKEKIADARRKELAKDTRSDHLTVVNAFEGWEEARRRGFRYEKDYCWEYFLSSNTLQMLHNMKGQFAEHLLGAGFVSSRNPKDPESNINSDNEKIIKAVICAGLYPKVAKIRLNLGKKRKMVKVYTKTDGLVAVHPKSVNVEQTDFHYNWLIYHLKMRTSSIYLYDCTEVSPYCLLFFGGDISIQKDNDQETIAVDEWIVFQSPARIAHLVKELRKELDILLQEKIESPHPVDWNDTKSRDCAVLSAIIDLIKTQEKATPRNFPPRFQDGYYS

The list shows a part of the results.

B1: hsa-mir-5006 (structured_RNA)
RNA: GGGAAAUGCGGGUUGAAGCUACCUUAGCGGUGUACGAAGUUUCAGCGGAAGGGAGCCCCAUUUACAGUGGUAACUUCCUUUCCGCUGAAGCUUCGUGCAC
B1: the binding signal in assay [1] is -0.763 z-score; in assay [2] it was -1.64 z-score; in assay [3] it was 0.07 z-score.

B2: hsa-mir-4533 (structured_RNA)
RNA: GGGAUCGUAGCGGACGUGCGACAUUUUCGGUGUACGAAGUUUCAGCCGCUGCUGGCUGCCUUCCAGCGGCUGAAGCUUCGUGCAC
Regarding B2, the figures for the binding signal in assay [1], in assay [2] and in assay [3] were -0.756 z-score, -0.456 z-score and -0.709 z-score, respectively.

B3: hsa-mir-7849 (structured_RNA)
RNA: GGGAACGUCCACUACGGGUCGAAUCGUUGGUGUACGAAGUUUCAGCUGACUACUUCGAAAAUGGGAAGUAGACAGCUGAAGCUUCGUGCAC
B3: the binding signal in assay [1] was -0.76 z-score; in assay [2], -0.799 z-score; in assay [3] it was 0.114 z-score.

B4: hsa-mir-561 (structured_RNA)
RNA: GGGACUUAUAGUGUCGCAAGAGCAACUGGGUGUACGAAGUUUCAGCUUUGCCAGAGCUACAAAGGCAAAGCUGAAGCUUCGUGCAC
Regarding B4, the values for the binding signal in assay [1], in assay [2] and in assay [3] were -0.806 z-score, -0.613 z-score and -1.71 z-score, respectively.

B5: hsa-mir-921 (structured_RNA)
RNA: GGGAGCCUACAACAAGGUUUGGUCAACAGGUGUACGAAGUUUCAGCAUUCAGACUCAGGUGCUGAAGCUUCGUGCAC
In the case of B5, the binding signal in assay [1] is -0.796 z-score; in assay [2], 0.199 z-score; in assay [3], -0.526 z-score.

B6: hsa-mir-6504 (structured_RNA)
RNA: GGGACACCCUGAAGUACCAUGAGUCAUAGGUGUACGAAGUUUCAGCAAUGCAGUCUGCACCCUGCUGCAUUGCUGAAGCUUCGUGCAC
For B6, the binding signal in assay [1] was -0.806 z-score; in assay [2], 0.603 z-score; in assay [3], 0.536 z-score.

B7: hsa-mir-4731 (structured_RNA)
RNA: GGGAAGGACCUGGAGCCUAUAGCCGAAUGGUGUACGAAGUUUCAGCAGUGUGCAGUCAUCCACACAGCUGAAGCUUCGUGCAC
For B7, the results for the binding signal in assay [1], in assay [2] and in assay [3] were -0.795 z-score, -0.099 z-score and -0.591 z-score, respectively.

B8: hsa-mir-4473 (structured_RNA)
RNA: GGGAACUAUCGUCGCCUGUUCCUGACCGGGUGUACGAAGUUUCAGCCUAAGCUAUGGACUGCUAUGGACUGCUAGGCUGAAGCUUCGUGCAC
For the molecule B8, the figures for the binding signal in assay [1], in assay [2] and in assay [3] were -0.775 z-score, -0.94 z-score and -1.99 z-score, respectively.

B9: hsa-mir-4733 (structured_RNA)
RNA: GGGAACAUAGUGCACCGUAACUCGUAGAGGUGUACGAAGUUUCAGCGGUGGCAAUCAAGGUCUAGCCACCGCUGAAGCUUCGUGCAC
Regarding B9, the binding signal in assay [1] is -0.76 z-score; in assay [2] it was -2.89 z-score; in assay [3], -2.09 z-score.

B10: hsa-mir-6858 (structured_RNA)
RNA: GGGAACGAGGAAAAUCCCCAAUCGGCAUGGUGUACGAAGUUUCAGCGCAGGGACCCCUCCAAGUUGGGGACGGCAGCGCUGAAGCUUCGUGCAC
For B10, the binding signal in assay [1] is -0.785 z-score; in assay [2], -1.05 z-score; in assay [3], -0.587 z-score.

B11: hsa-mir-4743 (structured_RNA)
RNA: GGGAAGCCUAGAUAAGCCGCCUCUAAUCGGUGUACGAAGUUUCAGCGGAGGCAUGAAUGAGCCAUCUUUCCAAUGCCUUUCGCUGAAGCUUCGUGCAC
For B11, the binding signal in assay [1] was -0.779 z-score; in assay [2], -0.243 z-score; in assay [3] it was 0.115 z-score.

B12: hsa-mir-4787 (structured_RNA)
RNA: GGGAACAUAUGUACGCUGGCGUUCACGAGGUGUACGAAGUUUCAGCCAUCCCGGACGGCCUGUGAGGGAUGGCUGAAGCUUCGUGCAC
In the case of B12, the figures for the binding signal in assay [1], in assay [2] and in assay [3] were -0.766 z-score, 0.379 z-score and -0.513 z-score, respectively.

B13: hsa-mir-548h-3 (structured_RNA)
RNA: GGGAUAAGUAUGCCGAGGUCGACAACAAGGUGUACGAAGUUUCAGCUGUCAUUGAAAGUAAUAGCAGCUGAAGCUUCGUGCAC
As to B13, the binding signal was -0.752 z-score in assay [1], -0.105 z-score in assay [2] and -0.175 z-score in assay [3].

B14: hsa-mir-1302-5 (structured_RNA)
RNA: GGGCUAAGUUGAUGAGUGACGAUACGACGGUGUACGAAGUUUCAGCCCAUGUAAUCUUUGGGCUGAAGCUUCGUGCAC
For the molecule B14, the binding signal in assay [1] is -0.767 z-score; in assay [2], -0.535 z-score; in assay [3], 0.795 z-score.

B15: hsa-mir-4258 (structured_RNA)
RNA: GGGAAUUACGCCCGGGUCCCAAUGGUUUGGUGUACGAAGUUUCAGCUGGAGGCUGACCUCUUACUUUCGGUCGGUCUUCUUGCUGAAGCUUCGUGCAC
On to B15, for which the binding signal is -0.755 z-score in assay [1], -0.533 z-score in assay [2] and -0.468 z-score in assay [3].

B16: hsa-mir-378a (structured_RNA)
RNA: GGGAAAUGCACAUAGAGUGUCCUCCUUGGGUGUACGAAGUUUCAGCGUGUGUUACCUAGAAAUAGCACUGCUGAAGCUUCGUGCAC
Consider B16, for which the binding signal in assay [1] is -0.751 z-score; in assay [2], -0.803 z-score; in assay [3] it was -0.574 z-score.

B17: hsa-mir-1285-2 (structured_RNA)
RNA: GGGACAGUUUGGCUGUCGCCUAGUGGAAGGUGUACGAAGUUUCAGCCAAUUUGAGACCAAUGCUGAAGCUUCGUGCAC
Take B17: the values for the binding signal in assay [1], in assay [2] and in assay [3] were -0.763 z-score, -0.899 z-score and -0.159 z-score, respectively.

B18: hsa-mir-3158-1 (structured_RNA)
RNA: GGGAGCAGACCCACAAUGAGUAUAACUGGGUGUACGAAGUUUCAGCCCUUCUGCUUACAGGUAUUGGAAGGGCUGAAGCUUCGUGCAC
As for B18, the binding signal in assay [1] is -0.752 z-score; in assay [2], -0.56 z-score; in assay [3], -1.59 z-score.

B19: hsa-mir-4444-1_4444-2 (structured_RNA)
RNA: GGGAUCACGAUACGAGUCUCCAGAGAACGGUGUACGAAGUUUCAGCCGGUCCCAUAUUGAACUCGGCUGAAGCUUCGUGCAC
Consider B19, for which the figures for the binding signal in assay [1], in assay [2] and in assay [3] were -0.752 z-score, -0.539 z-score and -1.08 z-score, respectively.

B20: hsa-mir-6791 (structured_RNA)
RNA: GGGAAUCGAAGACUAGACACCACUCAAAGGUGUACGAAGUUUCAGCGGCUGGGCAGGCGGAAAGAGGUCUGAACUGCCUCUGCCGCUGAAGCUUCGUGCAC
As to B20, the binding signal is -0.812 z-score in assay [1], 0.353 z-score in assay [2] and 0.096 z-score in assay [3].

B21: hsa-mir-130a (structured_RNA)
RNA: GGGAAUCAGUGAAUAAAGGAAGUACCCUGGUGUACGAAGUUUCAGCGCUACUGUCUGCACCUGUCACUAGCAGUGCUGAAGCUUCGUGCAC
In the case of B21, the binding signal in assay [1] was -0.77 z-score; in assay [2] it was -0.0324 z-score; in assay [3] it was 0.0712 z-score.

B22: hsa-mir-762 (structured_RNA)
RNA: GGGAAAUCACCGUCUCAACCCCGGUUCGGGUGUACGAAGUUUCAGCUCCGGCCGGCCAUGCUGGCGGGGGCUGAAGCUUCGUGCAC
Regarding B22, the results for the binding signal in assay [1], in assay [2] and in assay [3] were -0.792 z-score, 0.519 z-score and -0.337 z-score, respectively.

B23: hsa-mir-7114 (structured_RNA)
RNA: GGGAAUUCGGUGAACGCAAGCUCAGCCUGGUGUACGAAGUUUCAGCCUGUCCCCUGCCACUGGGUGACCGCUGAAGCUUCGUGCAC
Regarding B23, the binding signal is -0.763 z-score in assay [1], -0.741 z-score in assay [2] and -0.941 z-score in assay [3].

B24: hsa-mir-4638 (structured_RNA)
RNA: GGGAAAUGACCCUUGGACGUGCACAUUAGGUGUACGAAGUUUCAGCAAGUCCGGCUCCAGAACCUGGACACCGCUCAGGCUGAAGCUUCGUGCAC
Turning to B24, the figures for the binding signal in assay [1], in assay [2] and in assay [3] were -0.792 z-score, -0.556 z-score and -0.799 z-score, respectively.

B25: hsa-mir-1296 (structured_RNA)
RNA: GGGAAACCGAAGAUUAGGCCCUUGUUCGGGUGUACGAAGUUUCAGCAUCUCCUUUAGGAAAACCUUCUGUGGGGAGUGCUGAAGCUUCGUGCAC
Take B25: the binding signal in assay [1] was -0.754 z-score; in assay [2] it was 0.0157 z-score; in assay [3] it was -1.04 z-score.

B26: hsa-mir-3913-2 (structured_RNA)
RNA: GGGAUCAGCGUGUGGAGUCGUAAUUCACGGUGUACGAAGUUUCAGCGUCUGCCAAGGUUUUGGCAGACGCUGAAGCUUCGUGCAC
In the case of B26, the values for the binding signal in assay [1], in assay [2] and in assay [3] were -0.804 z-score, -0.988 z-score and -0.153 z-score, respectively.
